{"source": "ChEMBL document CHEMBL1614629", "about": "“Extrapolation of human pharmacokinetic parameters from rat, dog, and monkey data: Molecular properties associated with extrapolative success or failure” (J Pharm Sci, 2005)", "assay": "Clearance in human after iv administration", "assay_type": "ADME, organism-based", "details": "in vivo"}
{"compound": "O=C(c1ccccc1)c1ccc2n1CCC2C(=O)O", "note": "(stereo unspecified) [KETOROLAC]", "values": [{"measurement": "clearance", "value": 0.35, "unit": "mL/min/kg"}]}
